# Reference: patent US10640775B2, “Fusion protein, nanoparticle composed of a plurality of monomers of said fusion protein, and uses thereof” (Thena Biotech S.r.l., priority 2014, dated 2020)
# Tests used:
# [1] = Stability of the ferritin-doxorubicin complexes (% drug release over time, SEC); format: physicochemical; details: stored at 4° C. or 37° C.; compared to the native HFt construct; FIG. 10
# Procedure: The stability of the ferritin-Doxorubicin complexes was tested at 4° C. and 37° C. in terms of % drug release over time. The % of doxorubicin released was assessed by size exclusion chromatography (SEC) by using a gel filtration Superose 6 column equilibrated with phosphate-buffered saline (PBS) at pH 7.5. All samples were prepared at 1 mg/mL in filtered PBS, following the absorbance at 280 and 485 nm.
# [2] = injected through the systemic route; cited from earlier work
substance,measurement,setting,value
"native HFt: Heavy chain of human ferritin, native sequence (SEQ ID NO: 1), forming 24-subunit nanoparticle",stability of the drug-bound form (% drug released over time),[1],the material tended to become cloudy and precipitate
same,plasma half-life,[2],2 to 3 h
